Key:
[1] = Ross-Miles foam test based upon ASTM D 1173-53; format: physicochemical; conditions: 0.1 wt % solution
Description: In this test, a 0.1 wt % solution of the surfactant is added from an elevated foam pipette to a foam receiver containing the same solution. The foam height is measured at the completion of the addition (“Initial Foam Height”) and the time required for the foam to dissipate is recorded (“Time to 0 Foam”). This test provides a comparison between the foaming characteristics of various surfactant solutions. In general, in coatings, inks, and agricultural formulations, foam is undesirable because is complicates handling and can lead to coating and print defects, and to inefficient application of agricultural materials.

[2] = Dynamic surface tension of aqueous solutions, maximum bubble pressure method; conditions: for Dynamic Surface Tension: 0.1 wt % solution in water
Source text: In the following Examples dynamic surface tension data were obtained for aqueous solutions of various compounds using the maximum bubble pressure method at bubble rates from 0.1 bubbles/second (b/s) to 20 b/s. […] In practical terms, high bubble rates correspond to high printing speeds in lithographic printing, high spray or roller velocities in coating applications, and rapid application rates for agricultural products.
This value is a measure of the efficiency of a surfactant.
The critical aggregation concentrations (solubility limit or critical micelle concentration) were determined by intersection of the linear portion of a surface tension/ In concentration curve with the limiting surface tension as is described in many textbooks. The limiting surface tensions at 0.1 and 20 bubbles/second (b/s) represent the lowest surface tensions in water which can be achieved at the given surface creation rate for a given surfactant regardless of the amount of surfactant used. These values give information about the relative ability to a surfactant to reduce surface defects under near-equilibrium condition (0.1 b/s) through very dynamic conditions (20 b/s). Lower surface tensions would allow the elimination of defects upon application of a formulation onto lower energy surfaces.
Process solutions containing 0.1 weight percent of a surfactant derived from 2,5,8,11-tetramethyl-6-dodecyne-5,8-diol or containing a fluorosurfactant, potassium perfluorooctane carboxylate provided by 3M of […]. were prepared in order to compare the equilibrium surface tension (EST) and dynamic surface tension (DST). The EST for both solutions was measured using the Wilhemy plate method on a […] manufactured by Kruss, Inc. of Charlotte, N.C. The DST of each process solution was measured via the maximum bubble pressure method.

Substance: 5 mole ethylene oxide, 2 mole propylene oxide adduct of 2,4,7,9-tetramethyl-5-decyne-4,7-diol [Example 6]
- RM Foam initial (Initial Foam Height) [1]: 1.1 cm
- RM Foam t to 0 (Time to 0 Foam) [1]: 5 s
- Dynamic Surface Tension ([2]; 1 b/s): 30.0 dyne/cm
- Dynamic Surface Tension ([2]; 6 b/s): 37.1 dyne/cm
- Sol Limit / critical aggregation concentration (CAG) ([2]; solubility limit or critical micelle concentration in water): 0.10 wt %
